The nature of series [1]: Apparent permeability of compound across apical to basolateral side in MDCK-II cells by fluorescence based HPLC analysis. The series is classed as ADME, cell-based, Canis lupus familiaris. To be noted: dog.
Series [2] in a line: Tmax in Sprague-Dawley rat at 10 mg/kg, ip measured after 24 hrs by LC-MS/MS analysis. To be noted: in vivo. Type of series: ADME, organism-based.
Series [3] can be described thus: Cmax in Sprague-Dawley rat at 10 mg/kg, ip measured after 24 hrs by LC-MS/MS analysis. Type of series: ADME, organism-based. The settings on record: in vivo.
Series [4] can be described thus: AUC (0 to 24 hrs) in Sprague-Dawley rat at 10 mg/kg, ip measured after 24 hrs by LC-MS/MS analysis. The series is classed as ADME, organism-based. To be noted: in vivo.
Series [5] can be described thus: Apparent volume of distribution during terminal phase in Sprague-Dawley rat at 10 mg/kg, ip measured after 24 hrs by LC-MS/MS analysis. Type of series: ADME, organism-based. The settings on record: in vivo.
A short description of series [6]: Ratio of drug concentration in Sprague-Dawley rat brain to plasma at 10 mg/kg, ip measured after […] by LC-MS/MS analysis. The series is classed as ADME, organism-based. To be noted: time 0.17 hrs.
Series [7] is described as follows: Ratio of drug concentration in Sprague-Dawley rat brain to plasma at 10 mg/kg, ip measured after 0.5 hrs by LC-MS/MS analysis. Type of series: ADME, organism-based.
Series [8] in a line: Ratio of drug concentration in Sprague-Dawley rat brain to plasma at 10 mg/kg, ip measured after 1 hrs by LC-MS/MS analysis. The series is classed as ADME, organism-based.
Series [9] in a line: Ratio of drug concentration in Sprague-Dawley rat brain to plasma at 10 mg/kg, ip measured after 2 hrs by LC-MS/MS analysis. The series is classed as ADME, organism-based.

Each structure is given as a SMILES string.

For `CCc1cc(=O)[nH]c(-n2nc(C)cc2N[C@H](C)C2CCCC2)n1`, the Papp in series [1] was 7.9 10^-6 cm/s.
Same read-out and setting: under `CCc1cc(=O)[nH]c(-n2nc(C)cc2N[C@H](C)c2cccc(C(F)(F)F)c2)n1` stands 7.2 10^-6 cm/s.
Turning to `CCc1cc(=O)[nH]c(-n2nc(C)cc2N[C@@H](C)c2ccccc2)n1`, the Tmax in series [2] came out at 10.2 min. The compound also yielded a peak concentration (Cmax) in series [3] of 9993 ng/mL. In [4], the AUC was 4611 ng·h/mL. Moreover, in series [5], the Vz/F was 12 L/kg. Also, the BPR amounted to 15% in series [6], 14% in [7], 10% in series [8] and 13% in series [9].

By Tmax is commonly meant the time at which the peak concentration occurs. A word on the Cmax: it is the highest concentration seen after dosing. For orientation: AUC means the area under the concentration-time curve, a measure of exposure. Read a high AUC as more exposure.
